Laboratory results reported in patent publication US4956294A, “Culture of Streptoverticillium synroense for producing an antibacterial” (Merck & Co., Inc., priority 1989, dated 1990).
Values after ≈ are worked out from the molar mass of the structure shown.

How the values were obtained:
Format in all cases: cell-based
S. aureus 2865 = assay: Agar dilution, trypticase soy agar; conditions: Staphylococcus aureus, inoculum 10^4 cfu/spot, 35° C., 20 hours
S. aureus 2868 = assay: Agar dilution, trypticase soy agar; conditions: Staphylococcus aureus, inoculum 10^4 cfu/spot, 35° C., 20 hours
E. coli DC2 4353 = assay: Agar dilution, trypticase soy agar; conditions: Escherichia coli, DC24353; inoculum 10^4 cfu/spot, 35° C., 20 hours
Strep. faecalis 2864 [1] = assay: Agar dilution, antagonist-free medium; conditions: Enterococcus faecalis, inoculum 10^4 cfu/spot, 35° C., 20 hours
Ps. aeruginosa 2835 = assay: Agar dilution, trypticase soy agar; conditions: Pseudomonas aeruginosa, inoculum 10^4 cfu/spot, 35° C., 20 hours
Ps. aeruginosa 4279 = assay: Agar dilution, trypticase soy agar; conditions: Pseudomonas aeruginosa, inoculum 10^4 cfu/spot, 35° C., 20 hours
Ent. aerogenes 2828 = assay: Agar dilution, trypticase soy agar; conditions: Klebsiella aerogenes, inoculum 10^4 cfu/spot, 35° C., 20 hours
Strep. faecalis 2864 [2] = assay: Agar dilution, trypticase soy agar; conditions: Enterococcus faecalis, inoculum 10^4 cfu/spot, 35° C., 20 hours

Row | SMILES | MIC (S. aureus 2865) [µg/mL] | MIC (S. aureus 2868) [µg/mL] | MIC (E. coli DC2 4353) [µg/mL] | MIC (Strep. faecalis 2864 [1]) [µg/mL] | MIC (Ps. aeruginosa 2835) [µg/mL] | MIC (Ps. aeruginosa 4279) [µg/mL] | MIC (Ent. aerogenes 2828) [µg/mL] | MIC (Strep. faecalis 2864 [2]) [µg/mL]
1 | CO[C@@]1(NC(=O)Cc2cccs2)C(=O)N2C(C(=O)O)=C(COC(N)=O)CS[C@@H]21 [CEFOXITIN, Cefoxitin, reference compound] | 2 (≈ 4.68 µM) | 4 (≈ 9.36 µM) | 2 (≈ 4.68 µM) |  |  |  |  | 
2 | N[C@@H]1CONC1=O [D-Cycloserine, D-cycloserine, reference compound] |  |  |  | 4 (≈ 39.2 µM) |  |  |  | 
3 | C[C@H](CNC(=O)[C@H]1N=C(c2cccc(O)c2O)O[C@@H]1C)C(=O)N[C@@H]1CCCN(O)C1=O [L-654,040, 2-(2,3-dihydroxyphenyl)-4,5-dihydro-N-[3-[(1-hydroxy-2-oxo-3(R)-piperidinyl)-amino]-2(R)-methyl-3-oxopropyl]-5R-methyl-4S-oxazolecarboxamide] | 64 (≈ 147 µM) |  |  | > 256 | > 128 | > 128 | > 128 | > 128
